Consider 5 compounds from patent EP4733303A1, “MUSCARINIC M4 RECEPTOR AGONIST AND USE THEREOF” (Haisco Pharmaceutical Group Co., Ltd., priority 2023, dated 2024).

Amino acid sequences for entries named in this document (tags omitted).
UniProt P08173, whole entry: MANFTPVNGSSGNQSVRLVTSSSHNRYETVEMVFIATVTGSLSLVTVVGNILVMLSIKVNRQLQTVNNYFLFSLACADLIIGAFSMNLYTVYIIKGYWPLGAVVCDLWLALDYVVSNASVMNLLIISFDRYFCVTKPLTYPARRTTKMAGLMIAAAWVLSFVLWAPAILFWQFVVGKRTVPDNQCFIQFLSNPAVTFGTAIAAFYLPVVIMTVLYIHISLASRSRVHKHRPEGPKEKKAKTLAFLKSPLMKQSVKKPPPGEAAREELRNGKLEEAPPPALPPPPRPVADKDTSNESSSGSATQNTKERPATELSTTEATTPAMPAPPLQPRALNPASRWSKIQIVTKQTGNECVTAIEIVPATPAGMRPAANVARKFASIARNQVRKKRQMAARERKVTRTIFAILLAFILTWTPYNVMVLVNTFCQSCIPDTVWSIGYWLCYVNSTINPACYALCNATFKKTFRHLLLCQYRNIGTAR

This assay has as its target M4 receptor (Homo sapiens, UniProt P08173). As to the kind of experiment: PAM agonistic activity of compound on M4 receptor (FLIPR Calcium 6 assay in M4-CHO cells). As to conditions: with acetylcholine (Ach), final concentration 3 nM. The protocol:
• 1). Cell plating: M4-CHO cells were digested, collected, and resuspended. After cell counting, the cell suspension was seeded into a 384-well cell plate at a density of: 1.2 × 10^4 cells/25 µL/well. The cell plate was then cultured in a 37°C, 5% CO2 incubator for about 16-20 h. • 2). Day 2: Assay Buffer was prepared according to the instructions of the FLIPR Calcium 6 Assay Kit. Component A (20×) was thawed to room temperature and diluted with the Assay Buffer to prepare a loading buffer (1×), which was stored at room temperature until use. • 3). The culture medium was removed from the cell plate. 40 µL of the loading buffer (1×) was quickly added to each well. The cell plate was then centrifuged and incubated at 37°C in the dark for 120 min. • 4). Working solutions of the positive control compound and the test compounds were prepared. An acetylcholine (Ach) agonist compound solution was prepared (final concentration: 3 nM). The PAM compound and the Ach agonist solution were mixed at a 1 : 1 ratio, and the mixture was transferred into a 384-well compound source plate at 20 µL per well. • 5). The cell plate, the compound source plate, and the pipette tips were placed into the corresponding positions within the FLIPR instrument. 10 µL of the diluted compound from step 4 was added into each experimental well using the FLIPR Tetra. Data was collected at the wavelength of 515 nm-575 nm. • 6). The signal values were plotted against the compound concentrations. Nonlinear regression analysis was performed using GraphPad Prism software for curve fitting and EC50 calculation.
The experimental results are shown in Table 1, where A represents EC50 < […]; B represents 100 nM ≤ EC50 < 500 nM, and C represents 500 nM ≤ EC50. Table 1. Agonistic activity of compounds on M4 receptor

With `Cc1cc(-c2cnn(C)c2)nc2c1CN(C(=O)CC1CN(c3ccnc(OC4CC(F)C4)c3)C1)C2` (centres unmarked), the EC50 (tested form: free base) was less than 100 nM.

Turning to `Cc1cc(C)c2c(n1)CN(C(=O)CC1CN(c3ccnc(-n4cc5c(n4)CCC5)c3)C1)C2`, the 50% effective concentration (EC50) (tested form: free base) is less than 100 nM.

Take `Cc1cc(C)c2c(n1)CN(C(=O)CC1CN(c3cc(-n4ccc(C)n4)ncc3F)C1)C2`: the concentration for a half-maximal effect (EC50) is less than 100 nM.

For the compound `Cc1c2c(nc3c1CN(C(=O)CC1CN(c4ccnc(C(F)(F)F)c4)C1)C3)CCC2`, the 50% effective concentration (EC50) is less than 100 nM.

Consider `Cc1cc(C2CCOC2)nc2c1CN(C(=O)CC1CN(c3ccnc(OC4CC(F)(F)C4)c3)C1)C2` (centres unmarked), for which, under “tested form: free base”, the concentration for a half-maximal effect (EC50) was less than 100 nM.

In general, EC50 refers to the concentration giving half of the maximal effect.
